This is an account of results in publication PMC7017353, “Delineating the Molecular Basis of the Calmodulin–bMunc13-2 Interaction by Cross-Linking/Mass Spectrometry—Evidence for a Novel CaM Binding Motif in bMunc13-2” (Cells, 2020).

The test has as its target T1, calmodulin (CaM) (Homo sapiens, UniProt P0DP23).
T1 construct: photo-Met label (partial metabolic replacement of Met by the diazirine analogue photo-methionine); made in house; host or cells: E. coli
In words: Surface plasmon resonance (SPR), immobilised biotinylated CaM. It is filed as binding. Conditions: biotinylated photo-Met-labeled CaM on streptavidin/PEG-biotin chip, peptide 0.1, 0.5 and 1 µM, 20 mM HEPES, 230 mM NaCl, 0.5 mM TCEP pH 7.2, TraceDrawer.

Consider “703KLSLEQVCAETIYLNKCINNDKNVLREKRLRQKKLLQELV742 [Segment F723D, segment-C variant with F723 exchanged to aspartic acid]”, for which the KD result is “could not be derived”.
